Data: patent US20170233496A1 (NECTAGEN, published 2017)

Target: beta-D-galactosidase; biotinylated (Rockland Chemical, B000-17) (Escherichia coli (strain K12), UniProt P00722 1-1024 = β-galactosidase)
Experiment: affinity purification (IP) of Bgal from spiked E. coli lysate, SDS-PAGE, FIG. 9H

Binder	binding result
PC896 (designed binder) MCSSHHHHHHNPSLIRSESWQVYEGNEANLLDGDDNTGVWYKKAKNLASLAGEFIGLDLGKEIKLDGIRFVIGKNGGGSSDKWNKFKLEYSLDNESWTTIKEYDKTGAPAGKDVIEESFETPISAKYIRLTNLESYFNFLTFSEFAIVSD	binds
PC923 (designed binder) MCSSHHHHHHNPSLIRSESWQLIEGNEANLLDGDDNTGVWYFKDWHTASLAGEFIGLDLGKEIKLDGIRFVIGKNGGGSSDKWNKFKLEYSLDNESWTTIKEYDKTGAPAGKDVIEESFETPISAKYIRLTNLESYFEYLTFSEFAIVSD	binds
